Usually inhibition stands for the drop in the measured response relative to a control, in per cent.

By UniProt entry, the sequences of proteins in these tests, tags left out.
UniProt P07237, whole entry: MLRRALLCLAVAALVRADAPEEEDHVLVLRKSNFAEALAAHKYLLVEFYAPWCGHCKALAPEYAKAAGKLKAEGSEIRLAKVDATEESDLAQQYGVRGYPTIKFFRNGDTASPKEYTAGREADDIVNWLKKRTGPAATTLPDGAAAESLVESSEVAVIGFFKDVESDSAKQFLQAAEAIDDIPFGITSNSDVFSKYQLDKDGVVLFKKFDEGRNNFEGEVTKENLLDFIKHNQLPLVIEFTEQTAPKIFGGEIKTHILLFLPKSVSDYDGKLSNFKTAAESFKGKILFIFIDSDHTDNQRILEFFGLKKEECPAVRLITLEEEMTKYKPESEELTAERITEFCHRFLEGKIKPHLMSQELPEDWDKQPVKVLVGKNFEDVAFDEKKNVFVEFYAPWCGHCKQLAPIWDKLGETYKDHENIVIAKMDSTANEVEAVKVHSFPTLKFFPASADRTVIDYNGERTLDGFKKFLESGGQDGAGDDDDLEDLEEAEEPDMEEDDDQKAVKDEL

The entries are a selection whose mix differs from that of the whole data set. Activity calls are given as the source filed them.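 The calls were made as follows: active = mean inhibition across replicates of 30% or more, whatever share of single replicates reach that level; inconclusive = mean inhibition below 30% while every single replicate reaches 30%; inactive = the rest.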

Drawing on PubChem BioAssay AID588391 (Broad Institute, 2011), this text covers inhibition for two compounds.

The target of the assay is Protein disulfide-isomerase (Homo sapiens) (UniProt P07237). The assay can be described thus: inhibitors of human PDI, primary screen, biochemical, turbidity, single point, plate reader (AID 588391).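 Also: absorbance from insulin aggregation driven by PDI reduction with DTT.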 The conditions noted are these: PDI insulin aggregation turbidity, A650, 90 min; at 10 µM; hits give high values.
In the case of `CCC(=O)N(c1ccccc1)C1(COC)CCN(CCc2cccs2)CC1`, the inhibition is inactive: 2.94%. With `CCC(=O)N(c1ccccc1)C1(COC)CCN(CCn2nnn(CC)c2=O)CC1` the figure was inactive: 3.86%.
